This note sets out measurements from patent US5382596A, “Substituted 2-aminotetralins” (priority 1993, dated 1995).

By UniProt entry, the sequences of proteins in these tests, tags left out.
UniProt P61168, whole entry: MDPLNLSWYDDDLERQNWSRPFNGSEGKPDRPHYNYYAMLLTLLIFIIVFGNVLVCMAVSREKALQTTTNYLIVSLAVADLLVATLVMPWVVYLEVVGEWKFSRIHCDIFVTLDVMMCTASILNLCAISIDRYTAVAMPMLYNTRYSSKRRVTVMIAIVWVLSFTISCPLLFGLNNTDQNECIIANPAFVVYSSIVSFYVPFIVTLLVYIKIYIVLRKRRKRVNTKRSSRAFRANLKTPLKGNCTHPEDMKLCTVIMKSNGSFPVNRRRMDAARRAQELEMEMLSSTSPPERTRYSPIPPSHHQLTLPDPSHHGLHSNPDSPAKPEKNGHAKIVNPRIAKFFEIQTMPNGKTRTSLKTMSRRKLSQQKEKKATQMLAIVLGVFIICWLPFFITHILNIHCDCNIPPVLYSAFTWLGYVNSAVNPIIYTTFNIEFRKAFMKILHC
UniProt P20288, whole entry: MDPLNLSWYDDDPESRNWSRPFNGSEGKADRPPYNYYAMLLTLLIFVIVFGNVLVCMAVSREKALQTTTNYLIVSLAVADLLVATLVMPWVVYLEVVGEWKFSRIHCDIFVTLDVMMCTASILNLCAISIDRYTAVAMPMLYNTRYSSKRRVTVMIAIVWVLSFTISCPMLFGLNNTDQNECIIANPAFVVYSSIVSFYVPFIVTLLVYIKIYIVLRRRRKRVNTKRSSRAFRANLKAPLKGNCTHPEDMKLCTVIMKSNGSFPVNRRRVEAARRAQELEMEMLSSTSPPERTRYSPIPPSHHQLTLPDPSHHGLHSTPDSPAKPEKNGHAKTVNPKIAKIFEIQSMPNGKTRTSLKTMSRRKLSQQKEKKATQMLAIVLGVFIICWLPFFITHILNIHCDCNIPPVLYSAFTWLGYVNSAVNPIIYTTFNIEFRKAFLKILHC

Molecules are shown by their SMILES.

Assay [1] deals with dopamine D2 receptor (Mus musculus, UniProt P61168). Type of assay: biochemical. As for the experimental part:
Vasa deferentia from male BALB/C mice weighing approximately 30 g were removed and placed in isolated organ baths containing magnesium-free modified Krebs-Henseleit solution which was gassed with 95% O2 and 5% CO2 and maintained at 37° C. Tissues were set up under resting tension of 0.5 g and stimulated electrically at 60 volts, 0.1 Hz and 1 msec duration to produce a series of twitch responses. Tissues were pretreated with propranolol (1 μM) to block β-adrenoceptors, idazoxan (3 μM) to block α2 -adrenoceptors receptors, and ascorbic acid (100 μM) for 60 min before the addition of test compound.

Assay [2] deals with Dopamine D2 receptor (Bos taurus, UniProt P20288). The format is binding, bovine. As for the experimental part:
Membranes were prepared using a Brinkmann Polytron and collected by centrifugation. Membrane sources were bovine caudate (D2,D1) or rat cortex (α2). The membranes were washed, resuspended, and incubated at 37° C. for 30 min. in either the presence (rat cortex) of 1 μ/ml adenosine deaminase or absence (bovine caudate) of 0.1 μ/ml adenosine deaminase. Membranes were centrifuged, washed once and frozen at -70° C. until used. Immediately before use, the membranes were thawed, washed once, and resuspended to a final concentration of 0.5-2 mg/ml. Assays were initiated by addition of membranes. For D2 and D1 assays, the radioligands and conditions used were ^3 H-Spiperone (RT, 75 min.) and ^3 H-SCH23390 (37° C., 15 min.), respectively. For α2 assays, ^3 H-PAC (RT, 30 min.) was used Assays were terminated by filtration using a Brandel cell harvester over Whatman GF/B filters that had been pretreated with 0.1% polyethylenimine. […]

As to `CCCN(CCOC)[C@H]1CCc2c(ccc(O)c2O)C1` [Example 4], the “Specificity Ratio (a2 A50/D2 A50)” value on dopamine D2 receptor [1] amounted to 71. The “Selectivity Ratio (D1 K1/D2 K1)” value at Dopamine D2 receptor [2] is recorded as 19.
